Source: US4720543A, “1a-7-substituted derivatives of mitomycin and uses thereof” (priority 1985, dated 1988)

Tested on: E. coli WP2s (λ)
Assay: lambda prophage induction in microsuspension assay (genotoxicity)
Settings: 24 hours

For N-methyl-N-nitrosoguanidine, the “Induction of prophage, PFU/DISH” value (0.03125 ug/ml) was 1813.5 PFU/DISH, the “Induction of prophage, PFU/DISH” value (0.125 ug/ml) was 416.0 PFU/DISH and the “Induction of prophage, PFU/DISH” value (50.000 ug/ml) was 2366.0 PFU/DISH. The “Induction of prophage, PFU/DISH” value (200.000 ug/ml) was 473.5 PFU/DISH.
